Assay: Octanol/water partition coefficient (log P), shake-flask with UV spectroscopy; alternatively calculated by Hansch and Leo
Details: n-Octanol/Wasser

## 1,2,3, Propantriol
  Log P-Wert: -2.3
